For assay [1], the target named is 14C-Fc fragment of HIgG (human). Nature of the assay: secondary screening, batch, Fc fragment non-competitive (PBS).
Another assay concerns the target 14C-HIgG (human). As to the kind of experiment: secondary screening, batch, HIgG competitive (spiked in MEM).
Assay [2] deals with Fc fragment of HIgG (unlabeled) (human). As to the kind of experiment: batch adsorption to resin, A280 of flow through, mass balance.
The target in assay [3] is 14C-Fc fragment of HIgG (human). The description is as above.
The target is the same in assay [4]. Nature of the assay: secondary screening, batch, Fc fragment competitive (spiked in MEM).

This is an account of results in US20060153834A1.

For the substance “Protein A Sepharose CL-4B (from UniProt P38507 37-477)”, the results for the Bound % (in assay [1]; in the assay with 14C-HIgG (human); in assay [4]) were 93.7%, 83.4% and 78.6%, respectively. The substance also displayed a binding capacity, Unlabeled Fc in assay [2] of 9.9 mg/mL. Also, the binding capacity, 14C-Fc in assay [3] turned out to be 4.9 mg/mL.
